Measurements reported in ChEMBL document CHEMBL1177643, “Synthesis, DNA-binding ability and anticancer activity of benzothiazole/benzoxazole-pyrrolo[2,1-c][1,4]benzodiazepine conjugates” (Bioorg Med Chem, 2010).

System: Calf thymus DNA
Test: Binding affinity to calf thymus duplex-form DNA assessed as melting temperature at 1:5 compound/DNA ratio after 18 hrs
Type: nucleic-acid assay
Details: Bos taurus

SMILES: COc1cc2c(cc1O)N=C[C@@H]1CCCN1C2=O
- ΔTm: 0.7 °C
